Measurements reported in PubChem BioAssay AID540317 (National Center for Advancing Translational Sciences (NCATS), 2011).
The entries are a selection whose mix differs from that of the whole data set. Records with an inconclusive call do not appear. Entries that show only a call come without a potency. Activity calls are given as the source filed them. Calls come from the whole dose curve; as a rule, active = well fitted inhibition curve with a large enough effect; inconclusive = small, poorly fitted or top-dose-only effect; inactive = no such curve, though single readings can be large or run the other way.

Protein sequences, listed by entry. Tags and fused reporters are not part of them.
UniProt P83916, whole entry, looked up: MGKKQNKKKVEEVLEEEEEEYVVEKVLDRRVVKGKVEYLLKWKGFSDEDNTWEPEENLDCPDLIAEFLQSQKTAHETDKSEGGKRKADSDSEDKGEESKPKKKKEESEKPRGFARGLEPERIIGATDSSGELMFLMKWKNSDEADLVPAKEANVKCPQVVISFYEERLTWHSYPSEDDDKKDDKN

The compounds below were run against Chromobox protein homolog 1 (Homo sapiens) (UniProt P83916) (assay: HTS for Inhibitors of HP1-beta Chromodomain Interactions with Methylated Histone Tails). Conditions: AlphaScreen HP1-beta / biotin-H3K9me3 peptide binding; series mostly up to 114 µM.
Note: nearly all actives have a fitted effect of over 70% in size.
Potency is the fitted concentration of half-maximal effect.

| Structure (SMILES) | Potency |
| --- | --- |
| O=[N+]([O-])c1ccc(Nc2ccc(Oc3ccc([N+](=O)[O-])cc3[N+](=O)[O-])cc2)c([N+](=O)[O-])c1 | inactive |
| CCOC(=O)Nc1cccc([As](=O)(O)O)c1 | inactive |
| O=P(/N=c1/nc(-c2ccccc2)n(-c2ccccc2)s1)(Nc1ccccc1)Nc1ccccc1 | inactive |
| O=C(Nc1cc([As](=O)(O)O)ccc1O)c1ccccc1 | inactive |
| O=P1(N(CCCl)CCCl)OCCCS1 (stereo not drawn) | inactive |
| O=C(O)CNc1ccc([As](=O)(O)O)cc1 | inactive |
| COC(=O)C1(C)COP(=O)(Nc2ccccc2)OC1 (stereo not drawn) | inactive |
| O=[N+]([O-])c1cccc(NC2=NCC(CBr)S2)c1 (stereo not drawn) | inactive |
| O=[N+]([O-])c1ncn(CCn2ncnc2[N+](=O)[O-])n1 | inactive |
| Cc1ccc(NP(=O)(Oc2ccccc2)Oc2ccccc2)nc1 | inactive |
| CCc1nc2c(n1)c1c(non1O)c1c2no[n+]1[O-] | inactive |
| O=[N+]([O-])c1cccc2n[nH]nc12 | inactive |
| CC(=O)N1C2C3N(C(C)=O)C1C1N(C(C)=O)C(C(N1C(C)=O)N3C(C)=O)N2C(C)=O | inactive |
| COc1ccc(C2=NCC(CBr)S2)cc1 (stereo not drawn) | inactive |
| CC1CCN(C(=O)Oc2c(Cl)cc(Cl)c3cccnc23)CC1 | inactive |
| CC(C)=N/N=C(\N)N[N+](=O)[O-] | inactive |
| CN(C)C(=O)OCCc1n(C)cc[n+]1C | inactive |
| CCN(/C(=N/P(=O)(N1CCOCC1)N1CCOCC1)N1CCOCC1)c1ccc(OC)cc1 | inactive |
| Nc1ccc([As](=O)(O)c2ccc(N)cc2)cc1 | inactive |
| CN1CCCC(OC(=O)C(c2ccccc2)c2ccccc2)C1 (stereo not drawn) | inactive |
| Clc1ccc(Cl)c(NC2=NCC(CBr)S2)c1 (stereo not drawn) | inactive |
| COc1ccccc1OP(=O)(Nc1ccc(C)cn1)Oc1ccccc1OC | inactive |
| Cc1ccc(OP(=O)(Nc2nccs2)Oc2ccc(C)cc2)cc1 | inactive |
| CN(C(=O)Cc1ccc(Cl)c(Cl)c1)[C@H]1CCCC[C@H]1N1CCCC1 | inactive |
| Cc1ccc(N/C(=N/P(=O)(N2CCOCC2)N2CCOCC2)N2CCOCC2)cc1 | inactive |
| NC(=O)c1cc([N+](=O)[O-])cc([N+](=O)[O-])c1N | inactive |

| Structure (SMILES) | Potency |
| --- | --- |
| Oc1ccccc1CNc1ccccn1 | inactive |
| O=C(NC(Sc1ccncn1)C(Cl)(Cl)Cl)c1ccccc1 (stereo not drawn) | active: 25.1 µM |
| Nc1cc(N)c2nonc2c1[N+](=O)[O-] | inactive |
| CC(C)CC(=O)NC(Sc1ccc(Cl)cc1)C(Cl)(Cl)Cl (stereo not drawn) | inactive |
| CCOP(=O)(Nc1ccccc1)OCC | inactive |
| Cc1ccc(NP(=O)(Oc2ccccc2F)Oc2ccccc2F)nc1 | inactive |
| CN(C(=O)Cc1ccc(Cl)c(Cl)c1)[C@H]1CCCC[C@@H]1N1CCCC1 | inactive |
| O=P(Nc1nc2ccc(Cl)cc2s1)(c1ccccc1)c1ccccc1 | inactive |
| CC(=O)Nc1ccc([As](=O)(O)O)cc1 | inactive |
| O=C(O)c1ccccc1[As](=O)(O)O | inactive |
| CCCC1OP(N)(=O)OCC1CC (stereo not drawn) | inactive |
| Nc1cccc2ccc([As](=O)(O)O)cc12 | inactive |
| CCN(N=Nc1nonc1N)c1nonc1N | inactive |
| O=P1(N(CCCl)CCCl)OCCC2CCCCN21 (stereo not drawn) | inactive |
| c1ccc(-c2nn[nH]n2)c(-c2nn[nH]n2)c1 | inactive |
| Cc1ccc(NP(=O)(Oc2cccc(C)c2)Oc2cccc(C)c2)nc1 | inactive |
| CCNC(=S)/N=C(\N)N[N+](=O)[O-] | inactive |
| O=C(NC1CCS(=O)(=O)C1)NP(=S)(Oc1ccccc1)Oc1ccccc1 (stereo not drawn) | inactive |
| CC(NC(=O)COC(=O)C(O)(c1ccccc1)c1ccccc1)c1ccccc1 (stereo not drawn) | inactive |
| Cc1ccccc1OP(=O)(Nc1ccccn1)Oc1ccccc1C | inactive |
| CN(C)C(=O)Oc1noc2ccccc12 | inactive |
| O=C(OC1CN2CCC1CC2)c1ccccc1 (stereo not drawn) | inactive |
| CCC(=O)N1C2C3N(C(=O)CC)C1C1N(C(=O)CC)C(C(N1C(=O)CC)N3C(=O)CC)N2C(=O)CC | inactive |
| COC(=O)c1cc2c(s1)N=C(c1ccccc1)N(C)P2(=O)N1CCOCC1 (stereo not drawn) | inactive |
| CC(=O)NC(SC(=S)N(CC(C)C)CC(C)C)C(Cl)(Cl)Cl (stereo not drawn) | inactive |
| Cc1ccc(OP(=O)(Nc2ccccn2)Oc2ccc(C)cc2)cc1 | inactive |

| Structure (SMILES) | Potency |
| --- | --- |
| CC(C)(C)C(=O)NC(Sc1ccccc1)C(Cl)(Cl)Cl (stereo not drawn) | inactive |
| CCc1cc(O)c([N+](=O)[O-])c(C)c1[N+](=O)[O-] | inactive |
| O=P1(Nc2nc3ccc(Cl)cc3s2)COc2ccccc2O1 (stereo not drawn) | inactive |
| CCOc1ccc(C2=NCC(CBr)S2)cc1 (stereo not drawn) | inactive |
| CC(=O)Nc1ccc([As](=O)(O)O)c(O)c1 | inactive |
| CC(=O)Nc1ccc(Oc2c([N+](=O)[O-])cc([N+](=O)[O-])cc2[N+](=O)[O-])cc1 | inactive |
| Cc1ccccc1CN(C)C(=O)COC(=O)C(O)(c1ccccc1)c1ccccc1 | inactive |
| C[C@H]1OP(=O)(Oc2ccccc2)C[C@@H]2O[C@@H]21 (stereo partly drawn) | inactive |
| C[C@@H]1C=CCP(=O)(Oc2ccccc2)O1 (stereo partly drawn) | inactive |
| CC(=O)c1ccc(N2CC2c2ccncc2)cc1 (stereo not drawn) | inactive |
| N#C/C(=C\c1ccc(N(CCBr)CCBr)cc1)C(N)=O | inactive |
| COC(=O)C1(C)COP(=O)(NCc2ccccc2)OC1 (stereo not drawn) | inactive |
| c1nnnn1CCn1cnnn1 | inactive |
| CC(C)C(=O)NC(Sc1ccccc1)C(Cl)(Cl)Cl (stereo not drawn) | inactive |
| O=P(Nc1nccs1)(c1ccccc1)c1ccccc1 | inactive |
| O=P(Nc1nc2ccccc2s1)(c1ccccc1)c1ccccc1 | inactive |
| C[C@H]1OP(=O)(Oc2ccccc2)[C@H](O)[C@H](O)[C@H]1N=[N+]=[N-] (stereo partly drawn) | inactive |
| O=P(Nc1ccccn1)(c1ccc(Br)cc1)c1ccc(Br)cc1 | inactive |
| CN(C)C1(CNC(=O)c2ccc(Cl)c(S(N)(=O)=O)c2)CCCCC1 | inactive |
| COc1ccc(N)c([N+](=O)[O-])c1[N+](=O)[O-] | inactive |
| O=C(OC1CN2CCC1CC2)c1cccc(Cl)c1 (stereo not drawn) | inactive |
| C(Cc1nn[nH]n1)Cc1nn[nH]n1 | inactive |
| Nc1ccc([As](=O)(O)c2ccc([N+](=O)[O-])cc2)cc1 | inactive |
| O=[As](O)(c1ccccc1)c1ccc(O)cc1 | inactive |
| CC(=O)NC(SC(=S)N(C)C)C(Cl)(Cl)Cl (stereo not drawn) | inactive |
| O=[N+]([O-])c1ncn(CCn2cnc([N+](=O)[O-])n2)n1 | inactive |
